Target: SpCAF-1 complex (Pcf1-Pcf2-Pcf3), wild type, full length (S. pombe) (UniProt Q1MTN9)
Experiment: SEC-SAXS

Amino acid sequences for entries named in this document (tags omitted).
UniProt Q1MTN9, whole entry, chain 1 of 3: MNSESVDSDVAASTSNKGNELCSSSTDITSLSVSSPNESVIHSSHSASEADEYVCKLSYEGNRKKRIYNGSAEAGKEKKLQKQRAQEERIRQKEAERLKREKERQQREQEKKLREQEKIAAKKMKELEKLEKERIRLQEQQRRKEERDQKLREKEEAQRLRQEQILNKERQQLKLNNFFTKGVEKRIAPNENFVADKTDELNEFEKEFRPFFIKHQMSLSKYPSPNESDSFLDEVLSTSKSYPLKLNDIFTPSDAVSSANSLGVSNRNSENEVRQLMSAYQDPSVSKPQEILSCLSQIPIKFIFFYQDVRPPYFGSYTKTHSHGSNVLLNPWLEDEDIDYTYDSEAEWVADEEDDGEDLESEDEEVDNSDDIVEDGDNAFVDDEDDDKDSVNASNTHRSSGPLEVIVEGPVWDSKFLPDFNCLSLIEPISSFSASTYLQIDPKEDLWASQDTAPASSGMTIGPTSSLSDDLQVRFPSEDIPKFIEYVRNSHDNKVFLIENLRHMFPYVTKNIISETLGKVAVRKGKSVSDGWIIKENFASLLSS

stoichiometry N (H3−H4 dimer per SpCAF-1): 1
Substance: S. pombe histones H3−H4 (from UniProt P09988 1-136; P09322 1-103) (complex)

— paper PMC10942606
